# Measured affinities in a library of Ab-14 heavy chain variants

Reference: Engelhart et al. 2022, doi:10.1038/s41597-022-01779-4. File: FLAb, binding data.

Antigen: PDVDLGDISGINAS, a 14-residue peptide of the SARS-CoV-2 spike HR2 region.

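Variants in AAYL49 differ from the parent at up to three CDR positions; double and triple changes were sampled at random. AlphaSeq pools MATa yeast showing the antibodies with MATalpha yeast showing the peptide. Pairs that bind mate more often; barcode pairs of the diploids are counted by sequencing. Scores were corrected for input abundance and mapped to Kd with protein pairs of known affinity run in the same pool. The assay was run in three technical replicates.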

Parent: Ab-14, a human scFv built as VH, the linker GGGGSGGGGSGGGGS, VL. Only the CDRs of the heavy chain vary.
VH: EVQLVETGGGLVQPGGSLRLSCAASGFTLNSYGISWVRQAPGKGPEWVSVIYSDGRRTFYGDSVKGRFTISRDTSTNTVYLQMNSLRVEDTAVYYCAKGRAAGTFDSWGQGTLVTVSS
VL: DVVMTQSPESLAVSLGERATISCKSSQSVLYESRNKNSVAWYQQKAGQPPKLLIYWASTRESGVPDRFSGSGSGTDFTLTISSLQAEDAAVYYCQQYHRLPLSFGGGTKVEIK

Positions count from residue 1 of the parent VH; S53A puts A in place of S.
This list gathers variants with a substitution at S53 (VH, numbered from residue 1).
The read-out is the apparent dissociation constant on a log10 scale (nM): the lower, the stronger.
A mean of the replicates is given; it leaves out those without a signal.
A pair that was not seen in that replicate is written "nd"; this usually means weak binding, but a binder can also be missed.
Empty control strains, which show no peptide, gave a signal in 15% of pairings with library AAYL49; the median was 4.06 and 95% of these signals were weaker than 2.83. No background was subtracted. For each scFv, signals with the empty controls are counted beside the result.

The variant S53A/T58P/G61L gave 1.40, 1.48, 1.58 (mean 1.49; controls 3 of 9). With S53A/Y60T/R100Q the result was 2.20, 2.19, 2.53 (mean 2.30; controls 0 of 9). With Y32L/S53G/T104P the result was nd, 4.16, 5.78 (mean 4.97; controls 1 of 9). With Y52R/S53I/A102C the result was 4.15, nd, nd (controls 1 of 9). The variant S53C/R57V showed 4.35, nd, nd (controls 2 of 9).

The variant L29I/S53R/Y60R gave nd, nd, nd (controls 0 of 9). For S53I/R56D, the assay gave nd, 4.22, nd (controls 0 of 9). With V50C/Y52E/S53G the result was 3.53, nd, nd (controls 2 of 9). The variant S53G/A101R/D106S gave 3.35, 3.09, nd (mean 3.22; controls 4 of 9). The variant S53Y/R56S/F59R gave 2.93, 2.40, 2.61 (mean 2.65; controls 0 of 9).

For S53I/V64W, the assay gave nd, nd, nd (controls 1 of 9). With S53P/S63N/K65E the result was 2.03, 1.93, 2.19 (mean 2.05; controls 5 of 9). The variant I34R/S53F/D106Q gave nd, nd, nd (controls 1 of 9). With S53D/T58F/K65I the result was 4.07, nd, nd (controls 5 of 9). With T28D/S31P/S53P the result was nd, nd, nd (controls 1 of 9).

With S53A/T104G/S107C the result was nd, nd, nd (controls 2 of 9). The variant S53P/S63G showed 3.29, nd, nd (controls 0 of 9). The variant S53N/V64K/A101F showed nd, nd, 5.06 (controls 0 of 9). The variant S53H/D62H/G103K showed nd, nd, nd (controls 1 of 9). The variant S53C gave nd, nd, nd (controls 1 of 9).

For Y52E/S53N/R100Y, the assay gave nd, nd, nd (controls 0 of 9). With S53P/Y60I the result was 3.01, nd, nd (controls 0 of 9). The variant S53I/D106V showed nd, nd, nd (controls 1 of 9). With S53E/Y60E/D62S the result was nd, nd, nd (controls 1 of 9). With L29I/S53R/A101W the result was 3.61, nd, nd (controls 0 of 9).

With S53Q/R56L/K65A the result was nd, nd, nd (controls 1 of 9). With S53K/D54V/T104P the result was nd, 3.72, nd (controls 1 of 9). For S53C/V64D/R100I, the assay gave nd, nd, nd (controls 0 of 9). The variant S53T/S63L/A102E showed 4.67, nd, nd (controls 4 of 9). For S35L/S53A/S107G, the assay gave nd, 3.45, nd (controls 0 of 9).

With N30Q/S53F/G61D the result was 3.22, nd, 3.44 (mean 3.33; controls 0 of 9). The variant S53P/A101T/S107Y gave 3.26, 2.41, 4.41 (mean 3.36; controls 0 of 9). With S53V/K65L/D106H the result was nd, 3.73, nd (controls 0 of 9). The variant S35E/S53I/G55S showed 3.81, 4.58, nd (mean 4.19; controls 0 of 9). The variant Y52T/S53G/V64K gave nd, nd, nd (controls 2 of 9).

The variant S53E/D54F/A101C gave nd, nd, nd (controls 0 of 9). With S53Y/R56C/R100D the result was 1.62, 1.80, 1.89 (mean 1.77; controls 1 of 9).

Top 2 of the variants detected in all replicates, tightest first:

With S53A/T58P/G61L the result was 1.40, 1.48, 1.58 (mean 1.49; controls 3 of 9).
With S53Y/R56C/R100D the result was 1.62, 1.80, 1.89 (mean 1.77; controls 1 of 9).